ChEMBL document CHEMBL3856254, “Synthesis and biological evaluation of N-cyanoalkyl-, N-aminoalkyl-, and N-guanidinoalkyl-substituted 4-aminoquinoline derivatives as potent, selective, brain permeable antitrypanosomal agents” (Bioorg Med Chem, 2016)

Test: in vitro
Conditions: rat, l6

SMILES: N#CCCCCCCCCNc1c2c(nc3ccccc13)CCCC2
- selectivity ratio: 4.2
